Test [1] concerns the target T1, ECD-His tagged human ILT2 haplotype PE01 (human, UniProt Q8NHL6, in part).
T1 construct: also called Human ILT2 PE01 ECD; LILRB1/ILT2 PE01; not shown: His tag
The experiment in a line: SPR, LILR family panel. The method, then: (§1) Briefly, SPR experiments were performed using a Biacore T200 instrument, and the association rate (Kₐ), dissociation rate (Kd), and dissociation constant (KD) were calculated from each experiment using a 1:1 binding model with Biacore™ T200 Evaluation Software. Capture of antibodies from the Human Fab Capture kit (28958325, GE Healthcare) to the Series S CM5 sensor chip (29149603, GE Healthcare) was performed using the immobilization wizard for amine coupling from the Biacore™ control panel and following the manufacturer's recommendations included with the kit.

Chains of the proteins cited; added tags and fusions are not shown. Where a name states a change or a piece, a line headed by the entry shows the natural chain unless it says otherwise. A line that says so, or that is headed by a name, gives the form on record, which may keep a tag or linker. Residues count along the entry.
UniProt Q8NHL6, 24-458: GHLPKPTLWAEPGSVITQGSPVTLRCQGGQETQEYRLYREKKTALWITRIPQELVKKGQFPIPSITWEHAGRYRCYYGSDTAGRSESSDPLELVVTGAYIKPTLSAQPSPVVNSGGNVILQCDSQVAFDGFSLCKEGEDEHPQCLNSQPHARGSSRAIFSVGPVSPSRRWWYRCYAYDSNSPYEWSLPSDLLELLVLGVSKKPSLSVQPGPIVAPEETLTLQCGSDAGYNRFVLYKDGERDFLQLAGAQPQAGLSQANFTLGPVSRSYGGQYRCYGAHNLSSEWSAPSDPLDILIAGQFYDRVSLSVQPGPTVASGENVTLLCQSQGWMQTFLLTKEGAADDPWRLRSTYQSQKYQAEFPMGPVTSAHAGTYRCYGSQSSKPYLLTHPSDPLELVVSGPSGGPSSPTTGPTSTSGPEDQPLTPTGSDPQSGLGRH
UniProt Q8NHL6, 24-482 limits assumed: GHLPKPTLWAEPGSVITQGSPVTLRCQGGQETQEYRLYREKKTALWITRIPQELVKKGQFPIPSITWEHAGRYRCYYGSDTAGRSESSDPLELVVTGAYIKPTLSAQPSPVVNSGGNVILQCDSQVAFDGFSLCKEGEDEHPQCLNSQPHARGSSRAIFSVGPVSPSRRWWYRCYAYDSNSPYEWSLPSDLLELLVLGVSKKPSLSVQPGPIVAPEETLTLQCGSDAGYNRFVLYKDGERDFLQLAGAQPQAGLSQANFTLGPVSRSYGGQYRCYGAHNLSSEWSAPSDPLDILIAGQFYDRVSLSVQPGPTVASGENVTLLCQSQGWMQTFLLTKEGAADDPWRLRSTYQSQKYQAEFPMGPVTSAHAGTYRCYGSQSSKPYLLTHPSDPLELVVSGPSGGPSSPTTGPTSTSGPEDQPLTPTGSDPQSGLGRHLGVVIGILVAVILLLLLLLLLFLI
UniProt P59901, 24-446 limits assumed: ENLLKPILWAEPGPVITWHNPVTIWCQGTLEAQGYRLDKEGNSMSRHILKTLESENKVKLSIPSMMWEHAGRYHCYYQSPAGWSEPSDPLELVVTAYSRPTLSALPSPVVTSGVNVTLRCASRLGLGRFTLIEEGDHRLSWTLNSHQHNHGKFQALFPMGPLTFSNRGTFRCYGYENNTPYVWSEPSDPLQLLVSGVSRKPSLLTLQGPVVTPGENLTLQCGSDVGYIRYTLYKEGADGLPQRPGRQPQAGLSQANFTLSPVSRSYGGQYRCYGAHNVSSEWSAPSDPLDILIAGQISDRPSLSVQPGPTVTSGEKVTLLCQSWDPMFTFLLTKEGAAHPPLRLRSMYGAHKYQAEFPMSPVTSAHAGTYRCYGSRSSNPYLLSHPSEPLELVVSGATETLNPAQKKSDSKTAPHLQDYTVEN
UniProt O75023, 24-458 limits assumed: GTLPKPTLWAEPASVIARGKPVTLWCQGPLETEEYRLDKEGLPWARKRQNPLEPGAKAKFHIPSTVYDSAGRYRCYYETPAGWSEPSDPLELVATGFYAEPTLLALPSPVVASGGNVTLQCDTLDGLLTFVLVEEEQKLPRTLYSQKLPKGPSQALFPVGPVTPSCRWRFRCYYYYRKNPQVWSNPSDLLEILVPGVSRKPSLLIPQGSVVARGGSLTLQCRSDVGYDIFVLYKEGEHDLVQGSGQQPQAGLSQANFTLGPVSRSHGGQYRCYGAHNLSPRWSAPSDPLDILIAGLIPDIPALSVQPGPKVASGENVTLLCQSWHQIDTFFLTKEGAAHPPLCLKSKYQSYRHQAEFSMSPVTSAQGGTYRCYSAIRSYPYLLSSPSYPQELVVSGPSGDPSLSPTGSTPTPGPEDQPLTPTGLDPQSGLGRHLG
UniProt O75019, 17-461 limits assumed: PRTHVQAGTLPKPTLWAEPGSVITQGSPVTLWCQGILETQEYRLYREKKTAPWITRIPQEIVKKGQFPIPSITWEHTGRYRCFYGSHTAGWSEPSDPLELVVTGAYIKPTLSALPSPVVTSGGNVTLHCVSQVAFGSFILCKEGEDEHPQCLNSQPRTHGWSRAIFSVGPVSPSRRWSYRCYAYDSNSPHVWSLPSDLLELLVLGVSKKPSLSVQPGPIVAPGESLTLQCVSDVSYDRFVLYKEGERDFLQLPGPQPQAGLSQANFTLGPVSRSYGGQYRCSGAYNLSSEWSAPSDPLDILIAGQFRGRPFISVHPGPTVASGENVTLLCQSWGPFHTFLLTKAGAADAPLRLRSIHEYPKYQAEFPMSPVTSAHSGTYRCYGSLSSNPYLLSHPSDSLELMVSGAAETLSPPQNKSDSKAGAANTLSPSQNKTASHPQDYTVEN
ECD-His tagged African green monkey (AGM) ILT2 orthologue protein, one chain, as listed by the source: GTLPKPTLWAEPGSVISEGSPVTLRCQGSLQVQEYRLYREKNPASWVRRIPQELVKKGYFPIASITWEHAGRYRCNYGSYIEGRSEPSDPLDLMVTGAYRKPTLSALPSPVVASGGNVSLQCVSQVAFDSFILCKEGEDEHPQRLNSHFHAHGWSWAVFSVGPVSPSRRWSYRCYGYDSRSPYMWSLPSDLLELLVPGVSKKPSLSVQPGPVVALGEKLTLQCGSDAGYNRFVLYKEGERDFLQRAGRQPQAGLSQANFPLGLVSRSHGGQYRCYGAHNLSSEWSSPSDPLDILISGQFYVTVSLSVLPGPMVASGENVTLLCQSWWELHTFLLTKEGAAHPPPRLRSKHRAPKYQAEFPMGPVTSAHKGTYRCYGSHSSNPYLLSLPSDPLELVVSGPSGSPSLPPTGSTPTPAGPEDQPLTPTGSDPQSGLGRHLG

The target in test [2] is T2, human ILT2 extracellular and transmembrane domains expressed on CHO cells (human, UniProt Q8NHL6, in part).
T2 construct: domain: extracellular and transmembrane domains; which one is told under assay; also called CHO cells expressing human ILT2 (relatively low or relatively high level); CHO-ILT2 cells
Description: flow cytometry, blocking of PE HLA-C*07:02 pentamer on CHO cells with high human ILT2. In general terms: Flow cytometry measures light scatter and fluorescence of single cells or particles in a stream.

In test [3] the target is T2, human ILT2 extracellular and …. The experiment in a line: flow cytometry, blocking of PE HLA-A*02:01 pentamer on CHO cells with high human ILT2.
For test [4], the target named is T3, ECD-His tagged cynomolgus monkey ILT2 orthologue protein, variant 3 (cynomolgus monkey).
T3 construct: also called Cyno ILT2 variant 3; not shown: His tag
The experiment in a line: SPR, ECD-His tagged receptor. As for the experimental part:
as §1
Background: Surface plasmon resonance follows binding to a sensor surface in real time, without labels.

The target of test [5] is T2, human ILT2 extracellular and …. Description: flow cytometry competition assay, CHO cells expressing human ILT2, preincubated with unconjugated BA252; competitor BA252-APC at 0.3 µg/mL.
Test [6] concerns the target T4, ECD-His tagged rhesus monkey ILT2 orthologue protein, variant 2 (rhesus monkey).
T4 construct: also called Rhesus ILT2 variant 2; not shown: His tag
The experiment in a line: SPR.

In test [7] the target is T5, ECD-His tagged cynomolgus monkey ILT2 orthologue protein, variant 2 (cynomolgus monkey).
T5 construct: also called Cyno ILT2 variant 2; not shown: His tag
Description: SPR.

Test [8] addresses T6, ECD-His tagged cynomolgus monkey ILT2 orthologue protein, variant 1 (cynomolgus monkey).
T6 construct: also called Cyno ILT2 variant 1; not shown: His tag
The experiment in a line: SPR.

Test [9] deals with T7, ECD-His tagged mouse PirB protein (R&D Systems, 2754PB050) (mouse, UniProt P97484 25-642).
T7 construct: extracellular domain; Bought; not shown: His tag
T7 sequence (looked up): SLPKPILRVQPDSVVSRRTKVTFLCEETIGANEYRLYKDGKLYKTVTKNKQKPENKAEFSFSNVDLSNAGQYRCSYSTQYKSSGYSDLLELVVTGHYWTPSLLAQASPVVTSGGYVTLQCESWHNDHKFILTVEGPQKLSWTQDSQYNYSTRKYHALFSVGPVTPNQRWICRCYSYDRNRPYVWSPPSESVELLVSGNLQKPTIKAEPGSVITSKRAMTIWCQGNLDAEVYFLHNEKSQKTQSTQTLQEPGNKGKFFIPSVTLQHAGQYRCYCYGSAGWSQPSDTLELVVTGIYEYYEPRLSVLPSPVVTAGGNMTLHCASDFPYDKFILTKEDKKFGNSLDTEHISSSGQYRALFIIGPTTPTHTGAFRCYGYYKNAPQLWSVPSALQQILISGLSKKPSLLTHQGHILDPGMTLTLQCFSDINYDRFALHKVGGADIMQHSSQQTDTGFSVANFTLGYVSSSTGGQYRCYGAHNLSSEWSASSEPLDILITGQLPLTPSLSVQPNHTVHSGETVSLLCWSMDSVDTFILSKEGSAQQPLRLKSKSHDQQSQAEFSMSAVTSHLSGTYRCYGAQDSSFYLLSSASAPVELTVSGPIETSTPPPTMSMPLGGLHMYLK
Description: SPR.

Test [10] addresses T8, ECD-His tagged rhesus monkey ILT2 orthologue protein, variant 1 (rhesus monkey).
T8 construct: also called Rhesus ILT2 variant 1; not shown: His tag
The experiment in a line: SPR.

For test [11], the target named is T9, ECD-His tagged African green monkey (AGM) ILT2 orthologue protein (African green monkey).
T9 construct: also called African Green Monkey ILT2 ECD; not shown: His tag
Description: SPR.

The target of test [12] is T10, complement component C1q (Sigma/C1740-1 mg) (human).
T10 construct: Bought protein; also called complement component 1q (C1q) protein
Description: ELISA, antibody coated in a dilution series, C1q added at 2 µg/mL, biotinylated anti-C1q and streptavidin-HRP.

Test [13] deals with T11, recombinant human LILRA4/ILT7 (Sino Biological 16058-H08H-50) (human, UniProt P59901, in part).
T11 construct: Bought
The experiment in a line: SPR. An excerpt: (§2) Irrelevant antibody VRC01 IgG1 N297A was used as a negative isotype control.

Test [14] has as its target T12, recombinant human LILRB5/LIR-8 (Sino Biological 17221-H08H-100) (human, UniProt O75023, in part).
T12 construct: Bought
Description: SPR.
Text: as §2

The target in test [15] is T13, recombinant human LILRB3/ILT5 (R&D Systems 9159-T5-050) (human, UniProt O75022, in part).
T13 construct: Bought
The experiment in a line: SPR.
Text: as §2

Test [16] concerns the target T14, recombinant human LILRA1/LIR-6 (Sino Biological 17220-H08H-100) (human, UniProt O75019).
T14 construct: Bought
The experiment in a line: SPR.
Text: as §2

Test [17] deals with T2, human ILT2 extracellular and …. The experiment in a line: flow cytometry, CHO cells with low human ILT2. As for the experimental part: CHO cells expressing relatively high and low levels of human ILT2 were seeded in a 96-well U-bottom tissue culture plate at a density of 2×10⁵ cells per well in 50 μL of PBS supplemented with 0.5% BSA, 1 mM EDTA and 0.05% sodium azide (FACS Buffer). The cells were incubated for 30 minutes at 4° C. with 50 μL of a series dilution of anti-ILT2 antibodies or isotype control (VRC01 IgG₄) at concentrations from 10 μg/mL to 0.2 ng/mL in FACS Buffer.
For antibody staining, the cells were washed three times with cold FACS Buffer and resuspended in FACS Buffer containing a FITC-conjugated mouse anti-human IgG₄ antibody (Southern Biotech/9190-02) at a final concentration of […]. After a 30-minute incubation in the dark at 4° C., the cells were washed three times and analyzed as above.

The results in this text go back to US20250109201A1 (AGENUS, published 2025).

B1: BA252 (antibody, human IgG4 S228P, kappa)
heavy: QVQLVQSGAEVKKPGASVKVSCKASGYTFNRYYMHWVRQAPGQGLEWMGWINPYTGGTNYAQKFQGRVTMTRDTSISTAYMELSRLRSDDTAVYYCASKQPSSDYWGQGTLVTVSSASTKGPSVFPLAPCSRSTSESTAALGCLVKDYFPEPVTVSWNSGALTSGVHTFPAVLQSSGLYSLSSVVTVPSSSLGTKTYTCNVDHKPSNTKVDKRVESKYGPPCPPCPAPEFLGGPSVFLFPPKPKDTLMISRTPEVTCVVVDVSQEDPEVQFNWYVDGVEVHNAKTKPREEQFNSTYRVVSVLTVLHQDWLNGKEYKCKVSNKGLPSSIEKTISKAKGQPREPQVYTLPPSQEEMTKNQVSLTCLVKGFYPSDIAVEWESNGQPENNYKTTPPVLDSDGSFFLYSRLTVDKSRWQEGNVFSCSVMHEALHNHYTQKSLSLSLG
light: DIVMTQSPLSLPVTPGEPASISCRSSQSLLHSNTYNYLDWYLQKPGQSPQLLIYLGSNRASGVPDRFSGSGSGTDFTLKISRVEAEDVGVYYCLQASQAPWTFGQGTKVEIKRTVAAPSVFIFPPSDEQLKSGTASVVCLLNNFYPREAKVQWKVDNALQSGNSQESVTEQDSKDSTYSLSSTLTLSKADYEKHKVYACEVTHQGLSSPVTKSFNRGEC
For B1, the Kd (as a rule, a measure of binding affinity in units of concentration) came to 0.24 nM in test [1] and 1900 nM in [4]. Also, in test [1], the dissociation rate constant (koff) (commonly the first-order rate constant of dissociation) was found to be 0.00011 s⁻¹. Moreover, in [1], the on-rate (kon) (usually the second-order rate constant of association) amounted to 480000 M⁻¹ s⁻¹. Besides, the IC50 (as a rule, the midpoint of a concentration-inhibition curve) is 0.158 µg/mL in test [2] and 0.11 µg/mL in test [3]. Further, in test [5], the “IC50 (read off the curve)” value is around 0.2 µg/mL. Besides, the binding result in [6], in test [7], in [8], in test [9], in [10] and in test [11] was “no binding” throughout. For the same molecule, the binding result in test [12] is given as “no binding (tested: 300 µg/ml)”; in test [13] it was “no binding”; in [14], “no binding”; in [15], “no binding”; in test [16], “no binding”. For the same molecule, the half-maximal effective concentration (EC50) (commonly the concentration that produces a half-maximal response) in test [17] was 0.032 µg/mL.
